Earlier results as cited in paper PMC4791210 (International immunopharmacology, 2015).

Biological target: FPR1 (Homo sapiens) (UniProt P21462)
Test: radioligand binding
Settings: cited from earlier work

Substance: CHIPS (from UniProt Q2FFF7)
- Kd: 35 nM
